One series deals with MDA-MB-231. Put plainly: Antiproliferative activity against human MDA-MB-231 cells assessed as inhibition of cell proliferation measured after 72 hrs by MTS assay. It is filed as functional, cell-based. To be noted: MDA-MB-231, 72 h. (Tetrazolium assays rely on reduction of a dye to a coloured formazan, in cell work by metabolically active cells.)
A short description of the next series: in vivo. The settings on record: Sprague-Dawley, rat, po, 5 mg/kg.

For the molecule `CCNc1nc(N2CC(=O)Nc3cc(OC)ccc32)c2ncccc2n1`, the half-maximal inhibitory concentration (IC50) (as a rule, the midpoint of a concentration-inhibition curve) in the series with MDA-MB-231 was found to be 12 nM.

Consider `COc1ccc2c(c1)NC(=O)CN2c1nc(C)nc2c1CCC2`, for which, in the series “in vivo”, the time to peak (Tmax) (usually the time at which the peak concentration occurs) at 24 h is 3.72 h.

The values are drawn from ChEMBL document CHEMBL4828741, “X-ray Crystallography-Guided Design, Antitumor Efficacy, and QSAR Analysis of Metabolically Stable Cyclopenta-Pyrimidinyl Dihydroquinoxalinone as a Potent Tubulin Polymerization Inhibitor” (J Med Chem, 2021).
